Experimental data reported in ChEMBL document CHEMBL2401681 (Bioorg Med Chem Lett, 2013).

Species: Homo sapiens
Assay: Selectivity ratio of IC50 for human Gal4-ERalpha to IC50 for human Gal4-ERbeta

- Ratio IC50: 2
Compound: CCC(CC)(c1ccc(N)c(C)c1)c1ccc(O)c(C)c1
